Earlier results in paper PMC8569185 (Frontiers in Pharmacology, 2021).
Only a part of the results on these compounds is given; other tests are left out.

By UniProt entry, the sequences of proteins in these tests, tags left out.
UniProt P33534, whole entry: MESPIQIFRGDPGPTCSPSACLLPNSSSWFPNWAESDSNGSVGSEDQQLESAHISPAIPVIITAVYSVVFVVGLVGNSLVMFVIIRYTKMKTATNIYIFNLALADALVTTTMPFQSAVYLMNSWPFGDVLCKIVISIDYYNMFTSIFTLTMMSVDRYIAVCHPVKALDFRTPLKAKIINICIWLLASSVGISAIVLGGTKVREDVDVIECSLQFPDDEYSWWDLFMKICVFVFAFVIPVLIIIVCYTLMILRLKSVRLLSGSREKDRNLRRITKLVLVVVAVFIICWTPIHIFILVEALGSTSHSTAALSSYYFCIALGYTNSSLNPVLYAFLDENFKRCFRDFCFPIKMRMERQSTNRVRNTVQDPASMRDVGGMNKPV

Target: mouse KOR (Mus musculus, UniProt P33534)
Details: read-out: Kd of radioligand; previously determined at mouse KOR membranes; ref Muratspahić et al., 2021; cited from earlier work

For [^3H]-diprenorphine, the Kd is given as 0.87 nM.
